Measurements from article PMC4257678, “Influence of Sampling on the Determination of Warfarin and Warfarin Alcohols in Oral Fluid” (PLoS ONE, 2014).

Assay: clinical
Details: human, in vivo, po

In the case of CC(=O)CC(c1ccccc1)c1c(O)c2ccccc2oc1=O (stereo not drawn) [WAR, 3-(α-acetonylbenzyl)-4-hydroxycoumarin], the Kp (non-stimulated OF/UP ratio (mean ± s.d.)) is reported as 0.3 ± 0.1, the Kp (non-stimulated OF/UP ratio (range)) is reported as 0.1 to 0.5 and the Kp (stimulated OF/UP ratio (mean ± s.d.)) is reported as 0.7 ± 0.2. It also gave a Kp (stimulated OF/UP ratio (range)) of 0.3 to 0.9.
